Numbers after ± are expanded uncertainties.
Conditions: 101.33 kPa, Liquid

mass density (298.15 K): 764.07 ± 2 kg/m3 | mass density (303.15 K): 759.73 ± 2 kg/m3 | mass density (308.15 K): 755.45 ± 2.1 kg/m3 | speed of sound (308.15 K): 1179 ± 5.2 m/s | mass density (313.15 K): 751.21 ± 2.1 kg/m3
SMILES: CCCCOCCCC [dibutyl ether]

From the NIST ThermoML archive (doi:10.1021/je034022n)
